{
  "sequences": {"note": "Chains of the proteins cited; added tags and fusions are not shown. Lines headed by an entry give the natural chain unless they say otherwise; changes in a name come on top.", "UniProt P41146": "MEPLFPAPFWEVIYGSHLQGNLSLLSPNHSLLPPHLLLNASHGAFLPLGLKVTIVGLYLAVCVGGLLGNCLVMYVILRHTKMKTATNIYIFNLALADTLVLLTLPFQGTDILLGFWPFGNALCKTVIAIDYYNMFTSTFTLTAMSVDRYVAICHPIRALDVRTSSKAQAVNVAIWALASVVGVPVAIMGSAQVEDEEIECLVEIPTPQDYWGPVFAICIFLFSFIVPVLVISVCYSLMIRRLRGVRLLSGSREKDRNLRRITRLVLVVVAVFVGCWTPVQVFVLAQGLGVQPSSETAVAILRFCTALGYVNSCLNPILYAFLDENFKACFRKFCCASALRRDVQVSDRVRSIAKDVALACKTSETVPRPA", "UniProt Q13519": "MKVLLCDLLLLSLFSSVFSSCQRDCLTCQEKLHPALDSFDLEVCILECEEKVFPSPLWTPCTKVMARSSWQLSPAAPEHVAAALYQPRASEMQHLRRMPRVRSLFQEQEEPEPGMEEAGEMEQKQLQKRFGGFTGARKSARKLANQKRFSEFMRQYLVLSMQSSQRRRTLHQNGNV"},
  "source": "patent US20050196743A1",
  "biological_target": "nociceptin receptor (human) (UniProt P41146)",
  "test": "cell-based or functional assay",
  "data": [
    {"substance": "nociceptin (from UniProt Q13519 130-146) (peptide)", "values": [
      {"measurement": "EC50, M (ligand-dependent induction of cell surface Aga2-HA)", "result": 1.2, "unit": "µM"},
      {"measurement": "HRP activity (ELISA of DTT-extracted Aga2-HA) at 0 M ligand", "result": 0.097},
      {"measurement": "HRP activity (ELISA of DTT-extracted Aga2-HA) at 1.13 × 10^-7 M ligand", "result": 0.097},
      {"measurement": "HRP activity (ELISA of DTT-extracted Aga2-HA) at 4 × 10^-6 M ligand", "result": 0.37},
      {"measurement": "HRP activity (ELISA of DTT-extracted Aga2-HA) at 5 × 10^-7 M ligand", "result": 0.24},
      {"measurement": "Induction factor (cell surface Aga2-HA)", "result": 4.2}
    ]}
  ]
}
